Values quoted from earlier work, collected in patent publication US11185598B2, “Preparation of stabilised x-ray diagnostic composition” (GE HEALTHCARE AS, priority 2010, dated 2021).

Details: cited from earlier work

In the case of tris(hydroxymethyl)aminomethane, the pKa is given as 8.06.
